Experimental findings from patent US5976535A, “Pretargeting protocols for the enhanced localization of cytotoxins to target sites and cytotoxic combinations useful therefore” (NeoRx Corporation, priority 1995, dated 1999) are described below.

The data set has as its system LS-180 tumor xenografts. The following applies: mouse, in vivo.

For “[(N-methyl-N-biotinyl)-N-glycyl]-aminobenzyl-DOTA [Lu-177-DOTA-biotin]”, the “AUC tumor/AUC blood, increase over comparable conventional MAb-radiolabel administration” value is reported as “over 1000%”; the “AUC tumor/AUC blood, increase over comparable direct MAb-radiolabel administration” value was determined as 300%; the delivery to tumor is listed as 20-25 % injected dose/gram of tumor.
